According to the OPERA property sets (Mansouri et al. 2018):

Settings: for boiling point / melting point / log10 vapour pressure (mmHg): experimental values, compiled

| SMILES | boiling point | melting point | further results |
| --- | --- | --- | --- |
| CCOP(Cl)OCC | 153 °C |  |  |
| CCOP(OCC)OCC | 158 °C |  |  |
| CC(C)NP(=O)(F)NC(C)C |  | 65 °C |  |
| SCCCl | 113 °C |  |  |
| CCOP(O)OCC | 138 °C |  | log10 vapour pressure (mmHg): 1.05 |
| CC(C)N1CCC(N(C(=O)Cc2ccccc2)c2ccc(Cl)cc2)CC1 |  | 263 °C |  |
| CCOP(=S)(Oc1ccc([N+](=O)[O-])cc1)c1ccccc1 (configuration not stated) |  |  | log10 biotransformation half-life (days) (fish): 0.02 |
| O=C(Cl)OCCl | 107 °C |  |  |
| COP(OC)OC | 112 °C |  |  |
| COC(=O)CF | 104 °C | -35 °C |  |
| CCC(=O)n1c(=O)n(C2CCN(CCC(C#N)(c3ccccc3)c3ccccc3)CC2)c2ccccc21 |  | 147 °C |  |
| O=C(F)F | -84.5 °C | -111 °C | log10 vapour pressure (mmHg): 4.65 |
| CCOP(=O)(Cl)OCC | 93.5 °C |  |  |
